Assay results from patent US12061183B2, “Methods of assessing suitability of use of pharmaceutical compositions of albumin and poorly water soluble drug” (Abraxis BioScience, LLC, priority 2015, dated 2024).

Test: Percentage of albumin monomers, dimers, oligomers and polymers in fractions of the rapamycin/albumin nanoparticle composition
Type: physicochemical
Conditions: for Dimer: percentage of albumin dimers in 4% HA solution; for Monomer: percentage of albumin monomers in 4% HA solution; for Unnamed Oligomer: percentage of albumin oligomers in 4% HA solution; for Polymer: percentage of albumin polymers in 4% HA solution
Experimental: A composition comprising nanoparticles comprising rapamycin and albumin was prepared and reconstituted as described above to form a reconstituted suspension. A sample of the reconstituted suspension was ultracentrifuged as described above to form a supernatant and a pellet containing the nanoparticles.

Substance	Dimer [%]	Monomer [%]	Unnamed Oligomer [%]	Polymer [%]
4% HA System suitability	1.9	97.2	0.3	0.7
4% HA Stock Solution	1.9	95.2	0.3	2.5
